{"sequences": {"note": "By UniProt entry, the sequences of proteins in these tests, tags left out.", "UniProt P47746, whole entry": "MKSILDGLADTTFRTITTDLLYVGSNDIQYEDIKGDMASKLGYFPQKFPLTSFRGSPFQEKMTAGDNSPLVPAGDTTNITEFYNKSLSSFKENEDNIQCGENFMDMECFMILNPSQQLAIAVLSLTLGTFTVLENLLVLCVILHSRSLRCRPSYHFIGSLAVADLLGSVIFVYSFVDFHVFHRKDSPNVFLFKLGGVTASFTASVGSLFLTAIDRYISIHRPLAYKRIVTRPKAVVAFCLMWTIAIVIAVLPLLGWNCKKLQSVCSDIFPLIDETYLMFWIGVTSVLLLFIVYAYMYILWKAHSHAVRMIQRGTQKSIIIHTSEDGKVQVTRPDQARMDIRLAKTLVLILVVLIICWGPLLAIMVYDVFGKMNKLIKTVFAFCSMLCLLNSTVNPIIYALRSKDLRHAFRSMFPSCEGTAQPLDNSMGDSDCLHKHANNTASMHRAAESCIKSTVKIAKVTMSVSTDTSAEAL"}, "source": "patent US8410137B2", "about": "“Thiophene-2-carboxamide derivatives, preparation thereof and therapeutic use thereof” (Sanofi, priority 2008, dated 2013)", "target": "T1, CB1 receptors present in the brain (Mus musculus, UniProt P47746)", "T1 construct": "from tissue; host or cells: whole animal (brain CB1 receptors, in vivo)", "test": "Measurement (3): blocking of the hypothermic effect induced by CP55940", "type": "in vivo", "data": [{"smiles": "Cc1c(C(=O)NN2CCCCC2)nn(-c2ccc(Cl)cc2Cl)c1-c1ccc(Cl)cc1", "note": "[rimonabant, reference compound]", "values": [{"measurement": "effective dose 50 (DE50), reversion of the hypothermic effect of CP55940", "value": "(DE50) = 0.3 mg/kg]"}, {"measurement": "% of reversion of the hypothermic effect of CP55940 with regard to the CB1 receptors present in the brain", "setting": "iv at 10 mg/kg", "value": 100, "unit": "%"}]}]}
